Results from US20110245288A1 (priority 2010, published 2011).

How the values were obtained:
[1] = Plasma stability studies (bioconversion to parent drug); settings: 37° C., conversion of prodrug to buprenorphine
[2] = In vitro skin permeation studies of buprenorphine prodrugs (Example 1); settings: human skin in vitro, FIG. 1

CO[C@]12CC[C@@]3(C[C@@H]1[C@](C)(O)C(C)(C)C)[C@H]1Cc4ccc(OC(=O)OCC[C@H](O)CO)c5c4[C@@]3(CCN1CC1CC1)[C@H]2O5
Plasma hydrolysis (k) [1]: -0.79 h⁻¹
share of drug observed in the receiver solution after passing through the skin that was Formula IV [2]: 5.7%
